Earlier results as cited in PMC10708030, “Cytotoxic Natural Products Isolated from Cryptogramma crispa (L.) R. Br” (Molecules, 2023).

System: myeloid leukaemia HL 60 cells
Conditions: cited from earlier work

CC1=C2C(=C[C@@](C)(CO)[C@@H]2O)C(=O)[C@](C)(O)C12CC2 [illudin S]
cytotoxic effects against HL 60 cells: 6 to 100 nM
